Drawing on PubChem BioAssay AID588726 (The Scripps Research Institute Molecular Screening Center, 2011), this text covers inhibition for 26 compounds.

Sequences of proteins named here, by UniProt entry; tags and fusion partners are left off.
UniProt P9WQA3, whole entry: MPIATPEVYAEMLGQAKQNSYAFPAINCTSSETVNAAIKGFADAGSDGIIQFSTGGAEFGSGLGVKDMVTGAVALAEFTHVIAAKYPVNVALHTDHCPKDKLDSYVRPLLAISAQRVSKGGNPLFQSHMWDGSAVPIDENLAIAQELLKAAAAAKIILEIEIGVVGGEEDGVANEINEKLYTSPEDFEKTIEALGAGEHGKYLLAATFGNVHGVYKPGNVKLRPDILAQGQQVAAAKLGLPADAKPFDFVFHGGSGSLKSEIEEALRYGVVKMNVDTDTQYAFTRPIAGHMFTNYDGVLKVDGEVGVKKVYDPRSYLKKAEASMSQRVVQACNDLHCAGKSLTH

The list shows a part of the results, in another mix than the full data. Some of these compounds have results that are not shown, active ones among them. Active and inactive are the calls of the source. No stated cut-off is given here; in the data, active means inhibition above about 27%; inactive means the rest.

One may read the inhibition as the relative decrease from the control value, in per cent.

For the assay, the target named is Fructose-bisphosphate aldolase (Mycobacterium tuberculosis (strain ATCC 25618 / H37Rv)) (UniProt P9WQA3). Briefly: M. tuberculosis aldolase activity blockers – biochemical, fluorescence, strain H37Rv, primary screen (AID 588726).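 Further: 0% = vehicle and 100% = reference inhibitor.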 The following applies: purified M. tuberculosis FBA, fluorescence read-out; at 1 µM; active compounds read high.
On to `Cc1ccc(C(=O)NCC2(N3CCCCC3)CCCCC2)cc1`, for which the inhibition is inactive: -2.05%. Regarding `CC(C)N1C(=O)CC2(CCN(CCOC(=O)C(O)(c3ccccc3)c3ccccc3)CC2)C1=O`, the inhibition is inactive: 5.06%. Regarding `CCN(CC)CC(C)C(C)OC(=O)C(O)(c1ccccc1)c1ccccc1` (stereo unspecified), the inhibition is inactive: 2.68%. With `COc1cc(SC)ccc1C(=O)NCC1(N(C)C)CCCCC1` the figure was inactive: 2.6%; with `CN1[C@@H]2CC[C@H]1CC(OC(=O)C(O)(c1ccccc1)c1ccccc1)C2` (stereo partly specified), inactive: 0.91%. With `O=C(NCC1(N2CCCCC2)CCCCC1)c1cc([N+](=O)[O-])ccc1Cl` the figure was inactive: -1.93%; with `Cc1cc(C(=O)NCC2(N3CCCCC3)CCCCC2)ccc1[N+](=O)[O-]`, inactive: -0.33%; with `CCN1CCCC(OC(=O)C2(O)c3ccccc3C=Cc3ccccc32)C1` (stereo unspecified), inactive: 5.57%.

As to `O=C(NCC1(N2CCCCC2)CCCCC1)c1cccc(Br)c1`, the inhibition is inactive: 0.77%. With `COc1ccc(C(=O)NCC2(N(C)C)CCCCC2)cc1` the figure was inactive: 0.59%; with `C=CCN1CCN(CCOC(=O)C(O)(c2ccccc2)c2ccccc2)CC1`, inactive: 1.81%; with `O=C(NCC1(N2CCCCC2)CCCCC1)c1cc(F)c(F)cc1Cl`, inactive: 1.17%. Then `Cc1ccccc1C(=O)NCC1(N2CCCCC2)CCCCC1`, with inactive: -8.75%. Then `CN(C)C1CCCC1OC(=O)C(O)(c1ccccc1)c1ccccc1` (stereo unspecified), with inactive: 1.19%.

`CN(C)c1ccc(C(=O)NCC2(N(C)C)CCCCC2)cc1`: the inhibition was inactive: -0.15%. With `O=C(NCC1(N2CCCCC2)CCCCC1)c1cccc(Cl)c1`, the inhibition is inactive: 0.44%.

Consider `COc1cccc(C(=O)NCC2(N3CCCCC3)CCCCC2)c1`, for which the inhibition is inactive: 1.89%. Then `COc1ccc(Cl)cc1C(=O)NCC1(N(C)C)CCCCC1`, with inactive: 0.49%. With `COc1cc(C(=O)NCC2(N(C)C)CCCCC2)c([N+](=O)[O-])cc1OC` the figure was inactive: 0.32%; with `CN(C)C1(CNC(=O)c2ccc(Br)cc2)CCCCC1`, inactive: 0.74%; with `CN(C)c1cccc(C(=O)NCC2(N(C)C)CCCCC2)c1`, inactive: 3.66%. Then `CC(C)Oc1ccc(C(=O)NCC2(N(C)C)CCCCC2)cc1`, with inactive: 0.97%; and `O=C(OCCN1CCCC1)C(O)(c1ccccc1)c1ccccc1`, with inactive: -0.83%. On to `COc1ccc(Br)c(C(=O)NCC2(N3CCCCC3)CCCCC2)c1`, for which the inhibition was inactive: -2.75%. Then `C=C(C)C#CC(O)(C(=O)OC1CCN(C)CC1)c1ccccc1` (stereo unspecified), with inactive: 3.31%. `O=C(OC1CN2CCC1CC2)C(CO)(c1ccccc1)c1ccccc1` (stereo unspecified): the inhibition was inactive: 3.06%.
